{"source": "patent EP0998480B1", "about": "“NUCLEOTIDE ANALOG COMPOSITION AND SYNTHESIS METHOD” (GILEAD SCIENCES, INC., priority 1997, dated 1999)", "note": "Like-named read-outs stand apart in the source and are kept apart here."}
{"substance": "9-[2-(R)-[[Bis[[(isopropoxycarbonyl)oxy]methoxy]phosphinoyl]methoxy]propyl]adenine• fumaric acid [BPPF]", "values": [{"measurement": "solubility", "setting": "0.1 n hcl", "value": "15 to 100", "unit": "mg/mL"}, {"measurement": "solubility", "setting": "acetone", "value": "15 to 100", "unit": "mg/mL"}, {"measurement": "solubility", "setting": "acetonitrile", "value": "3 to 15", "unit": "mg/mL"}, {"measurement": "solubility", "setting": "deionized water, pH 3.3", "value": "3 to 15", "unit": "mg/mL"}, {"measurement": "solubility", "setting": "dimethylformamide", "value": 428, "unit": "mg/mL"}, {"measurement": "solubility", "setting": "ethanol", "value": "15 to 100", "unit": "mg/mL"}, {"measurement": "solubility", "setting": "isopropanol", "value": "15 to 100", "unit": "mg/mL"}, {"measurement": "solubility", "setting": "isopropyl acetate", "value": "3 to 15", "unit": "mg/mL"}, {"measurement": "solubility", "setting": "isopropyl acetate:water (1:1 v/v)", "value": "15 to 100", "unit": "mg/mL"}, {"measurement": "solubility", "setting": "methanol", "value": "15 to 100", "unit": "mg/mL"}]}
